Assay results from publication PMC7253423, “Quassinoid analogs with enhanced efficacy for treatment of hematologic malignancies target the PI3Kγ isoform” (Communications Biology, 2020).

How the values were obtained:
[1] = test system: Raji cells; test: Cell viability assay (CellTiter-Glo luminescence); format: cell-based; conditions: human
Method: (§1) 5000 cells as indicated were cultured in 96-well plate with 100 μl of media. On the next day, Brusatol or associated analogs were added once to the cells without media change. After treatment, the cells were incubated with 100 μl buffer for 10 min at room temperature following the instructions of CellTiter-Glo kit (Promega, Madison, WI). Luminescence was detected using a multi-mode reader Cytation 5 (BioTek, Winooski, VT). Brusatol or its analogs are dissolved in 100% ethanol and diluted in 1 × PBS for treatment. Two independent experiments done in duplicates were performed.

[2] = test system: MOLM14 cells; test: Cell viability assay (CellTiter-Glo luminescence); format: cell-based; conditions: human
Method: as §1

[3] = test system: SU-DHL-4 cells; test: Cell viability assay (CellTiter-Glo luminescence); format: cell-based; conditions: human
Method: as §1

[4] = test system: normal T-cells; test: Cytotoxicity, cell viability assay in normal cells; format: cell-based, human; conditions: fraction of 0 μM control
From the text: (§2) Human peripheral blood mononuclear cells (PBMCs), normal T-cells and B-cells were provided by the University of Pennsylvania Human Immunology Core (HIC), and Patient-derived xenografts (PDXs) were obtained from Fox Chase Cancer Center (FCCC). These samples were from different unidentified and healthy donors with written, informed consent. All the procedures were approved by the Institutional Review Board (IRB) and conducted according to the declarations of Helsinki protocols.
as §1

[5] = test system: PBMC; test: Cytotoxicity, cell viability assay in normal cells; format: cell-based, human; conditions: Con. 0.000976563 μM, fraction of 0 μM control
From the text: as §2, §1

For `C[C@H](NC(=O)c1c(N)nn2cccnc12)c1cc2cccc(C#Cc3cnn(C)c3)c2c(=O)n1-c1ccccc1` [IPI-549], the “relative cell viability (Fig 6f), replicates” value ([1]; 0.0390625 μM) was 1.1894, the “relative cell viability (Fig 6f), replicates” value ([1]; 0.625 μM) was 1.19 and the “relative cell viability (Fig 6e), replicates” value ([2]; 0.00244141 μM) was 1.208. The “relative cell viability (Fig 6e), replicates” value ([2]; 0.0390625 μM) was 1.211, the “relative cell viability (Fig 6e), replicates” value ([2]; 2.5 μM) was 1.11 and the “relative cell viability (Fig 6d), replicates” value ([3]; 0.00244141 μM) was 1.1404. For the same compound, the “relative cell viability (Fig 6d), replicates” value ([3]; 0.00976562 μM) was 1.083, the “relative cell viability (Fig 6d), replicates” value ([3]; 0.15625 μM) was 1.172 and the “relative cell viability (Fig 6d), replicates” value ([3]; 0.625 μM) was 0.9953. The “relative cell viability (Fig 6d), replicates” value ([3]; 2.5 μM) was 0.8211, the “relative cell viability (Fig 6b), replicates” value ([4]; Con. 0.000244141 μM) was 0.9355 and the “relative cell viability (Fig 6b), replicates” value ([4]; Con. 0.25 μM) was 1.195. For the same compound, the “relative cell viability (Fig 6a), replicates” value [5] was 1.089.
In the case of `CC[C@H](Nc1ncnc2[nH]cnc12)c1nc2cccc(F)c2c(=O)n1-c1ccccc1` [Idelalisib], the “relative cell viability (Fig 6f), replicates” value ([1]; 0.00244141 μM) is reported as 1.153, the “relative cell viability (Fig 6f), replicates” value ([1]; 0.00976562 μM) is reported as 1.359 and the “relative cell viability (Fig 6f), replicates” value ([1]; 0.15625 μM) is reported as 1.194. The “relative cell viability (Fig 6f), replicates” value ([1]; 2.5 μM) was 1.018, the “relative cell viability (Fig 6f), replicates” value ([1]; 10 μM) was 0.8548 and the “relative cell viability (Fig 6e), replicates” value ([2]; 0.00976562 μM) was 1.185. The “relative cell viability (Fig 6d), replicates” value ([3]; 0.00976562 μM) was 1.214, the “relative cell viability (Fig 6d), replicates” value ([3]; 0.0390625 μM) was 1.044 and the “relative cell viability (Fig 6d), replicates” value ([3]; 0.15625 μM) was 1.012. For the same compound, the “relative cell viability (Fig 6d), replicates” value ([3]; 0.625 μM) was 1.012, the “relative cell viability (Fig 6b), replicates” value ([4]; Con. 0.015625 μM) was 1.009 and the “relative cell viability (Fig 6b), replicates” value ([4]; Con. 0.0625 μM) was 1.048.
